From ChEMBL document CHEMBL6087467, “Probing the Histamine H1 Receptor Binding Site to Explore Ligand Binding Kinetics” (J Med Chem, 2025)

Sequences of proteins named here, by UniProt entry; tags and fusion partners are left off.
UniProt P35367, whole entry: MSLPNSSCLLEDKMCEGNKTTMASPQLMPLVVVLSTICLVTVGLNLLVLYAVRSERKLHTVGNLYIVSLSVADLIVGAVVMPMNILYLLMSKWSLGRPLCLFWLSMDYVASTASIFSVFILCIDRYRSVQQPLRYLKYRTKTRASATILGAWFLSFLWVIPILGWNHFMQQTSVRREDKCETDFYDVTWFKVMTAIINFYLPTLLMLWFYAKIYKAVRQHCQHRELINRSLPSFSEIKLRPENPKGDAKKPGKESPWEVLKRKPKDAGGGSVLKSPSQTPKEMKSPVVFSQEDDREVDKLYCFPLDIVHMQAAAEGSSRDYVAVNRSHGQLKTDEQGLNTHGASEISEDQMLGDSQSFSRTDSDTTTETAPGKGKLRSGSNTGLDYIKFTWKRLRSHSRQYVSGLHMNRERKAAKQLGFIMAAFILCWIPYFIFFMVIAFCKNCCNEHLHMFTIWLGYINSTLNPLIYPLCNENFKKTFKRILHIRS

Legend:
[1] = molecular target: T1, Histamine H1 receptor (Homo sapiens, UniProt P35367); format: cell-based; conditions: hek293t
[2] = molecular target: T1, Histamine H1 receptor; conditions: HEK293T, time 4.0 hrs
[3] = molecular target: T1, Histamine H1 receptor; conditions: HEK293T, time 4.0 hrs; remark: listed apart in the source

Cc1ccc(/C(=C\CN2CCCC2)c2cccc(/C=C/C(=O)O)n2)cc1 [ACRIVASTINE]
Dissociation rate constant (koff) [1]: 0.00112 s⁻¹
Ka [2]: 0.58 10^6/M/min
Retention time [3]: 15 min
